From paper PMC4933336, “Examining the Effects of Sodium Ions on the Binding of Antagonists to Dopamine D2 and D3 Receptors” (PLoS ONE, 2016)

Chains of the proteins cited; added tags and fusions are not shown.
UniProt P35462, whole entry: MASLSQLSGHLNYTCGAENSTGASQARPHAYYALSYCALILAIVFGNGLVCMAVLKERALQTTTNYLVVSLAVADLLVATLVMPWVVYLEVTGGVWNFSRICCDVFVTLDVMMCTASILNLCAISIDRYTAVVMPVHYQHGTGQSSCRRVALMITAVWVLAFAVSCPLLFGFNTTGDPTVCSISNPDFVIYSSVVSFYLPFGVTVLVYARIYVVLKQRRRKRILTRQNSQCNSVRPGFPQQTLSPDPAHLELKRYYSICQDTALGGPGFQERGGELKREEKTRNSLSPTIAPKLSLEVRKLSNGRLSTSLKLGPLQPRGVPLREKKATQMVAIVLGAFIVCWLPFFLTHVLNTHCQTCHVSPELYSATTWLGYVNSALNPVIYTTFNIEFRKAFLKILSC
UniProt P35462, whole entry D75A: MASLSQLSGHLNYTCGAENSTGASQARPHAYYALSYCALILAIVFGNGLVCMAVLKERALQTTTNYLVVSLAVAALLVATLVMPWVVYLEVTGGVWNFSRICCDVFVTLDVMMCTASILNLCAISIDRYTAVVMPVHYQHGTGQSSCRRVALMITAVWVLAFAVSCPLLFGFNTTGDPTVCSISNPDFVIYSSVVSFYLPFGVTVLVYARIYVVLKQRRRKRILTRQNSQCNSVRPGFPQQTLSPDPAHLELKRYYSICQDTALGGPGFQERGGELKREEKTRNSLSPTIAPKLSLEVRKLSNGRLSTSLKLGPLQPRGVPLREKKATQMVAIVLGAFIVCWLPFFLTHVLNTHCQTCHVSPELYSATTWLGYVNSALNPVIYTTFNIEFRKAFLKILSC

Legend:
[1] = molecular target: T1, dopamine D3 receptor (D3), c-myc tagged, U-2 OS (Homo sapiens, UniProt P35462); test: [3H]spiperone competition binding, U-2 OS membranes
T1 construct: gene DRD3; full-length, N-terminal c-myc tag; membranes of U-2 OS cells (BacMam)

[2] = molecular target: T2, dopamine D3 receptor (D3), c-myc tagged, U-2 OS (Homo sapiens, UniProt P35462, D75A); test: as above
T2 construct: gene DRD3; full-length, N-terminal c-myc tag; membranes of U-2 OS cells (BacMam)

- IC50 [1]: 182 nM
- IC50 [2]: 2000 nM
Compound: CCN1CCC[C@H]1CNC(=O)c1cc(S(N)(=O)=O)ccc1OC [sulpiride]
